Assay results from US20260116920A1, “HUMAN TRANSFERRIN RECEPTOR BINDING PEPTIDE” (PEPTIDREAM INC., priority 2021, published 2026).

By UniProt entry, the sequences of proteins in these tests, tags left out. Residues count along the entry.
UniProt P02786, 89-760 limits assumed: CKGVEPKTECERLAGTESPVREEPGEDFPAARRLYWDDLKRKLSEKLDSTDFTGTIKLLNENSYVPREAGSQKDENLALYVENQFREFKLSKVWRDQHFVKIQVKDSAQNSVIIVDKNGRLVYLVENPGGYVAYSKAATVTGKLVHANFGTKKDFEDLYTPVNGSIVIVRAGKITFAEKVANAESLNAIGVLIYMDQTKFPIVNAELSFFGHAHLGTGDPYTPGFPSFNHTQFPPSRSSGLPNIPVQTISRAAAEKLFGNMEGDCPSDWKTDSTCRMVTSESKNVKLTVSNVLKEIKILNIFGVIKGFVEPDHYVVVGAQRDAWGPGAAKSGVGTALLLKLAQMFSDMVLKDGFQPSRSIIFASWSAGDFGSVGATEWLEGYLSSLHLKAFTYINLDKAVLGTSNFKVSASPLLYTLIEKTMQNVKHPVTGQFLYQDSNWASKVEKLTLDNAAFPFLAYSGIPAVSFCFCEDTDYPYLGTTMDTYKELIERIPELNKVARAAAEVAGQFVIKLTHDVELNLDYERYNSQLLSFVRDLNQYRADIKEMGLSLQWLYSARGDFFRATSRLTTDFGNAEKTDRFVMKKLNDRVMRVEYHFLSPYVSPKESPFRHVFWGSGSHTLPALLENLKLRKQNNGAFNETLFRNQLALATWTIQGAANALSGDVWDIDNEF

The compounds below were run against T1, human transferrin receptor (hTfR) (Homo sapiens, UniProt P02786) (assay: Evaluation of molecular interaction between transferrin receptor (hTfR) and peptide using surface plasmon resonance (SPR)). Conditions: KD class of the peptide with linker for hTfR by surface plasmon resonance; read-out: SPR.
T1 construct: made in house
Format: binding
How it was run: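 Steps: NTA chip loaded with NiCl2, activated with EDC/NHS, coated with 0.5 μM hTfR dimer, capped with ethanolamine. Peptides diluted from DMSO stock into running buffer (pH 8.0, 1.0% DMSO) at 5–100 nM and injected in single-cycle mode. Sensorgrams fitted to give KD.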

Kd, 1 to 100 nM:
CC[C@H](C)[C@@H]1NC(=O)[C@H](Cc2ccc(O)cc2)NC(=O)[C@H](Cc2ccc(O)cc2)NC(=O)[C@H](CC(N)=O)NC(=O)[C@H](Cc2c[nH]c3ccccc23)NC(=O)[C@H](C(C)C)NC(=O)[C@H](Cc2ccccc2)N(C)C(=O)[C@H](C(C)C)NC(=O)[C@H](C)NC(=O)CSC[C@@H](C(=O)NCC(=O)N[C@H](C(=O)N[C@@H](CCCNC(N)=O)C(=O)N[C@@H](CCCCN=[N+]=[N-])C(N)=O)C(C)C)NC(=O)[C@H](Cc2ccc(O)cc2)N(C)C(=O)[C@H](Cc2ccc(O)cc2)NC(=O)[C@H](CCCNC(=N)N)NC(=O)[C@H](CCCNC(=N)N)NC(=O)[C@H]([C@@H](C)CC)NC1=O [compound 296], CC[C@H](C)[C@@H]1NC(=O)[C@H](Cc2ccc(O)cc2)NC(=O)[C@H](Cc2ccc(O)cc2)NC(=O)[C@H](CC(N)=O)NC(=O)[C@H](Cc2c[nH]c3ccccc23)NC(=O)[C@H](C(C)C)NC(=O)[C@H](Cc2ccccc2)N(C)C(=O)[C@H](C(C)C)NC(=O)[C@H](C)NC(=O)CSC[C@@H](C(=O)NCC(=O)N[C@@H](CCC(=O)O)C(=O)N[C@H](C(=O)N[C@@H](CCCNC(N)=O)C(=O)N[C@@H](CCCCN=[N+]=[N-])C(N)=O)C(C)C)NC(=O)[C@H](Cc2ccc(O)cc2)N(C)C(=O)[C@H](Cc2ccc(O)cc2)NC(=O)[C@H](CCCNC(=N)N)NC(=O)[C@H](CCCNC(=N)N)NC(=O)[C@H]([C@@H](C)CC)NC1=O [compound 297], CC[C@H](C)[C@@H]1NC(=O)[C@H](Cc2ccc(O)cc2)NC(=O)[C@H](Cc2ccc(O)cc2)NC(=O)[C@H](CC(N)=O)NC(=O)[C@H](Cc2c[nH]c3ccccc23)NC(=O)[C@H](C(C)C)NC(=O)[C@H](Cc2ccccc2)N(C)C(=O)[C@H](C(C)C)NC(=O)[C@H](C)NC(=O)CSC[C@@H](C(=O)NCC(=O)NCC(=O)NCC(=O)N[C@@H](Cc2ccccc2)C(=O)NCC(=O)N[C@@H](CCCCN=[N+]=[N-])C(N)=O)NC(=O)[C@H](Cc2ccc(O)cc2)N(C)C(=O)[C@H](Cc2ccc(O)cc2)NC(=O)[C@H](CCCNC(=N)N)NC(=O)[C@H](CCCNC(=N)N)NC(=O)[C@H]([C@@H](C)CC)NC1=O [compound 298], CC[C@H](C)[C@@H]1NC(=O)[C@H](Cc2ccc(O)cc2)NC(=O)[C@H](Cc2ccc(O)cc2)NC(=O)[C@H](CC(N)=O)NC(=O)[C@H](Cc2c[nH]c3ccccc23)N(C)C(=O)[C@H](C(C)C)NC(=O)[C@H](Cc2ccccc2)N(C)C(=O)[C@H](C(C)C)NC(=O)[C@H](C)NC(=O)CSC[C@@H](C(=O)NCC(=O)N[C@H](C(=O)N[C@@H](CCCNC(N)=O)C(=O)N[C@@H](CCCCN=[N+]=[N-])C(N)=O)C(C)C)NC(=O)[C@H](Cc2ccc(O)cc2)N(C)C(=O)[C@H](Cc2ccc(O)cc2)NC(=O)[C@H](CCCNC(=N)N)NC(=O)[C@H](CCCCN)NC(=O)[C@H]([C@@H](C)CC)NC1=O [compound 299], CC[C@H](C)[C@@H]1NC(=O)[C@H](Cc2ccc(O)cc2)NC(=O)[C@H](Cc2ccc(O)cc2)NC(=O)[C@H](CC(N)=O)NC(=O)[C@H](Cc2c[nH]c3ccccc23)N(C)C(=O)[C@H](C(C)C)NC(=O)[C@H](Cc2ccccc2)N(C)C(=O)[C@H](C(C)C)NC(=O)[C@H](C)NC(=O)CSC[C@@H](C(=O)NCC(=O)N[C@@H](CCC(=O)O)C(=O)N[C@H](C(=O)N[C@@H](CCCNC(N)=O)C(=O)N[C@@H](CCCCN=[N+]=[N-])C(N)=O)C(C)C)NC(=O)[C@H](Cc2ccc(O)cc2)N(C)C(=O)[C@H](Cc2ccc(O)cc2)NC(=O)[C@H](CCCNC(=N)N)NC(=O)[C@H](CCCCN)NC(=O)[C@H]([C@@H](C)CC)NC1=O [compound 300], CC[C@H](C)[C@@H]1NC(=O)[C@H](Cc2ccc(O)cc2)NC(=O)[C@H](Cc2ccc(O)cc2)NC(=O)[C@H](CC(N)=O)NC(=O)[C@H](Cc2c[nH]c3ccccc23)N(C)C(=O)[C@H](C(C)C)NC(=O)[C@H](Cc2ccccc2)N(C)C(=O)[C@H](C(C)C)NC(=O)[C@H](C)NC(=O)CSC[C@@H](C(=O)NCC(=O)NCC(=O)NCC(=O)N[C@@H](Cc2ccccc2)C(=O)NCC(=O)N[C@@H](CCCCN=[N+]=[N-])C(N)=O)NC(=O)[C@H](Cc2ccc(O)cc2)N(C)C(=O)[C@H](Cc2ccc(O)cc2)NC(=O)[C@H](CCCNC(=N)N)NC(=O)[C@H](CCCCN)NC(=O)[C@H]([C@@H](C)CC)NC1=O [compound 301], CC[C@H](C)[C@@H]1NC(=O)[C@H](Cc2ccc(OCC(=O)O)cc2)NC(=O)[C@H](Cc2ccc(O)cc2)NC(=O)[C@H](CC(N)=O)NC(=O)[C@H](Cc2cn(CC(=O)O)c3ccccc23)NC(=O)[C@H](C(C)C)NC(=O)[C@H](Cc2cccc(Cl)c2)N(C)C(=O)[C@H](C(C)C)NC(=O)[C@H](C)NC(=O)CSC[C@@H](C(=O)NCC(=O)N[C@H](CO)C(=O)N[C@H](CO)C(=O)N[C@H](CO)C(=O)N[C@H](CO)C(=O)N[C@H](CO)C(=O)N[C@H](CO)C(=O)N[C@H](CO)C(=O)N[C@H](CO)C(=O)N[C@H](CO)C(=O)N[C@H](CO)C(=O)N[C@@H](CCCCNC(C)=O)C(N)=O)NC(=O)[C@H](Cc2ccc(O)cc2)N(C)C(=O)[C@H](Cc2ccccc2)NC(=O)[C@H](CCCNC(=N)N)NC(=O)[C@H](CCCNC(=N)N)NC(=O)[C@H]([C@@H](C)CC)NC1=O [compound 302], CC[C@H](C)[C@@H]1NC(=O)[C@H](Cc2ccc(OCC(=O)O)cc2)NC(=O)[C@H](Cc2ccc(N)nc2)NC(=O)[C@H](CC(N)=O)NC(=O)[C@H](Cc2cn(CC(=O)O)c3ccccc23)NC(=O)[C@H](C(C)C)NC(=O)[C@H](Cc2cccc(Cl)c2)N(C)C(=O)[C@H](C(C)C)NC(=O)[C@H](C)NC(=O)CSC[C@@H](C(=O)NCC(=O)N[C@@H](CCCCN=[N+]=[N-])C(N)=O)NC(=O)[C@H](Cc2ccc(O)cc2)N(C)C(=O)[C@H](Cc2ccncc2)NC(=O)[C@H](CCCNC(=N)N)NC(=O)[C@H](CCCNC(=N)N)NC(=O)[C@H]([C@@H](C)CC)NC1=O [compound 303], CC[C@H](C)[C@@H]1NC(=O)[C@H](Cc2ccc(OCC(=O)O)cc2)NC(=O)[C@H](Cc2ccc(N)nc2)NC(=O)[C@H](CC(N)=O)NC(=O)[C@H](Cc2cn(CC(=O)O)c3ccccc23)NC(=O)[C@H](C(C)C)NC(=O)[C@H](Cc2cccc(Cl)c2)N(C)C(=O)[C@H](C(C)C)NC(=O)[C@H](C)NC(=O)CSC[C@@H](C(=O)NCC(=O)N[C@@H](CCCCN=[N+]=[N-])C(N)=O)NC(=O)[C@H](Cc2ccc(O)cc2)N(C)C(=O)[C@H](Cc2ccncc2)NC(=O)[C@H](CCCNC(=N)N)NC(=O)[C@H](CCC(=O)NCCOCCOCCOCCOCCOCCOCCOCCOC)NC(=O)[C@H]([C@@H](C)CC)NC1=O [compound 304], CC[C@H](C)[C@@H]1NC(=O)[C@H](Cc2ccc(OCC(=O)O)cc2)NC(=O)[C@H](Cc2ccc(N)nc2)NC(=O)[C@H](CC(N)=O)NC(=O)[C@H](Cc2cn(CC(=O)O)c3ccccc23)NC(=O)[C@H](C(C)C)NC(=O)[C@H](Cc2cccc(Cl)c2)N(C)C(=O)[C@H](C(C)C)NC(=O)[C@H](C)NC(=O)CSC[C@@H](C(=O)NCC(=O)N[C@@H](CCCCN=[N+]=[N-])C(N)=O)NC(=O)[C@H](Cc2ccc(O)cc2)N(C)C(=O)[C@H](Cc2cccc(C(=O)O)c2)NC(=O)[C@H](CCCNC(=N)N)NC(=O)[C@H](CCC(=O)NCCOCCOCCOCCOCCOCCOCCOCCOC)NC(=O)[C@H]([C@@H](C)CC)NC1=O [compound 305], CC[C@H](C)[C@@H]1NC(=O)[C@H](Cc2ccc(OCC(=O)O)cc2)NC(=O)[C@H](Cc2ccc(O)cc2)NC(=O)[C@H](CC(N)=O)NC(=O)[C@H](Cc2cn(CC(=O)O)c3ccccc23)NC(=O)[C@H](C(C)C)NC(=O)[C@H](Cc2cccc(Cl)c2)N(C)C(=O)[C@H](C(C)C)NC(=O)[C@H](C)NC(=O)CSC[C@@H](C(=O)NCC(=O)N[C@H](CCC(=O)O)C(=O)N[C@H](CCC(=O)O)C(=O)N[C@H](CCC(=O)O)C(=O)N[C@H](CO)C(=O)N[C@H](CO)C(=O)N[C@@H](CCCCN)C(N)=O)NC(=O)[C@H](Cc2ccc(O)cc2)N(C)C(=O)[C@H](Cc2ccncc2)NC(=O)[C@H](CCCCN2CCOCC2)NC(=O)[C@H](CCC(=O)NCCOCCOCCOCCOCCOCCOCCOCCOC)NC(=O)[C@H]([C@@H](C)CC)NC1=O [compound 306], CC[C@H](C)[C@@H]1NC(=O)[C@H](Cc2ccc(OCC(=O)O)cc2)NC(=O)[C@H](Cc2ccc(O)cc2)NC(=O)[C@H](CC(N)=O)NC(=O)[C@H](Cc2cn(CC(=O)O)c3ccccc23)NC(=O)[C@H](C(C)C)NC(=O)[C@H](Cc2cccc(Cl)c2)N(C)C(=O)[C@H](C(C)C)NC(=O)[C@H](C)NC(=O)CSC[C@@H](C(=O)NCC(=O)N[C@H](CCC(=O)O)C(=O)N[C@H](CCC(=O)O)C(=O)N[C@H](CCC(=O)O)C(=O)N[C@H](CO)C(=O)N[C@H](CO)C(=O)N[C@@H](CCCCN)C(N)=O)NC(=O)[C@H](Cc2ccc(O)cc2)N(C)C(=O)[C@H](Cc2cccc(C(=O)O)c2)NC(=O)[C@H](CCCCN2CCOCC2)NC(=O)[C@H](CCCCN2CCOCC2)NC(=O)[C@H]([C@@H](C)CC)NC1=O [compound 307], CC[C@H](C)[C@@H]1NC(=O)[C@H](Cc2ccc(OCC(=O)O)cc2)NC(=O)[C@H](Cc2ccc(O)cc2)NC(=O)[C@H](CC(N)=O)NC(=O)[C@H](Cc2cn(CC(=O)O)c3ccccc23)NC(=O)[C@H](C(C)C)NC(=O)[C@H](Cc2cccc(Cl)c2)N(C)C(=O)[C@H](C(C)C)NC(=O)[C@H](C)NC(=O)CSC[C@@H](C(=O)NCC(=O)N[C@H](CO)C(=O)N[C@H](CO)C(=O)N[C@H](CO)C(=O)N[C@H](CO)C(=O)N[C@H](CO)C(=O)N[C@@H](CCCCN)C(N)=O)NC(=O)[C@H](Cc2ccc(O)cc2)N(C)C(=O)[C@H](Cc2ccncc2)NC(=O)[C@H](CCCCN2CCOCC2)NC(=O)[C@H](CCC(=O)NCCOCCOCCOCCOCCOCCOCCOCCOC)NC(=O)[C@H]([C@@H](C)CC)NC1=O [compound 308]
